This series in a line: soluble on expression in E. coli; label from the status in PepcDB or PDB records.

From the DeepSol protein solubility set come the findings set out here.

For the sequence “MGHHHHHHSHMANSAGSMANSAGSMDELFPLIFPAEPAQASGPYVEIIEQPKQRGMRFRYKCEGRSAGSIPGERSTDTTKTHPTIKINGYTGPGTVRISLVTKDPPHRPHPHELVGKDCRDGFYEAELCPDRCIHSFQNLGIQCVKKRDLEQAISQRIQTNNNPFQVPIEEQRGDYDLNAVRLCFQVTVRDPSGRPLRLPPVLPHPIFDNRAPNTAELKICRVNRNSGSCLGGDEIFLLCDKVQKEDIEVYFTGPGWEARGSFSQADVHRQVAIVFRTPPYADPSLQAPVRVSMQLRRPSDRELSEPMEFQYLPDTDDRHRIEEKRKRTYETFKSIMKKSPFSGPTDPRPPPRRIAVPSRSSASVPKPAPQPYPFTSSLSTINYDEFPTMVFPSGQISQASALAPAPPQVLPQAPAPAPAPAMVSALAQAPAPVPVLAPGPPQAVAPPAPKPTQAGEGTLSEALLQLQFDDEDLGALLGNSTDPAVFTDLASVDNSEFQQLLNQGIPVAPHTTEPMLMEYPEAITRLVTGAQRPPDPAPAPLGAPGLPNGLLSGDEDFSSIADMDFSALLSQISS”, the “soluble on expression in E. coli” value was “not soluble”.
On to “VVNGIPTRTNIGWMVSLRYRNKHICGGSLIKESWVLTARQCFPSRDLKDYEAWLGIHDVHGRGDEKCKQVLNVSQLVYGPEGSDLVLMKLARPAVLDDFVSTIDLPNYGSTIPEKTSCSVYGWGYTGLINYDGLLRVAHLYIMGNEKCSQHHRGKVTLNESEICAGAEKIGSGPCEGDYGGPLVCEQHKMRMVLGVIVPGRGCAIPNRPGIFVRVAYYAKWIHKIILTYKVPQS”, for which the “soluble on expression in E. coli” value is “soluble”.
